Amino acid sequences for entries named in this document (tags omitted). A change or cut given only in a name is not applied to a line headed by its entry.
UniProt Q12809: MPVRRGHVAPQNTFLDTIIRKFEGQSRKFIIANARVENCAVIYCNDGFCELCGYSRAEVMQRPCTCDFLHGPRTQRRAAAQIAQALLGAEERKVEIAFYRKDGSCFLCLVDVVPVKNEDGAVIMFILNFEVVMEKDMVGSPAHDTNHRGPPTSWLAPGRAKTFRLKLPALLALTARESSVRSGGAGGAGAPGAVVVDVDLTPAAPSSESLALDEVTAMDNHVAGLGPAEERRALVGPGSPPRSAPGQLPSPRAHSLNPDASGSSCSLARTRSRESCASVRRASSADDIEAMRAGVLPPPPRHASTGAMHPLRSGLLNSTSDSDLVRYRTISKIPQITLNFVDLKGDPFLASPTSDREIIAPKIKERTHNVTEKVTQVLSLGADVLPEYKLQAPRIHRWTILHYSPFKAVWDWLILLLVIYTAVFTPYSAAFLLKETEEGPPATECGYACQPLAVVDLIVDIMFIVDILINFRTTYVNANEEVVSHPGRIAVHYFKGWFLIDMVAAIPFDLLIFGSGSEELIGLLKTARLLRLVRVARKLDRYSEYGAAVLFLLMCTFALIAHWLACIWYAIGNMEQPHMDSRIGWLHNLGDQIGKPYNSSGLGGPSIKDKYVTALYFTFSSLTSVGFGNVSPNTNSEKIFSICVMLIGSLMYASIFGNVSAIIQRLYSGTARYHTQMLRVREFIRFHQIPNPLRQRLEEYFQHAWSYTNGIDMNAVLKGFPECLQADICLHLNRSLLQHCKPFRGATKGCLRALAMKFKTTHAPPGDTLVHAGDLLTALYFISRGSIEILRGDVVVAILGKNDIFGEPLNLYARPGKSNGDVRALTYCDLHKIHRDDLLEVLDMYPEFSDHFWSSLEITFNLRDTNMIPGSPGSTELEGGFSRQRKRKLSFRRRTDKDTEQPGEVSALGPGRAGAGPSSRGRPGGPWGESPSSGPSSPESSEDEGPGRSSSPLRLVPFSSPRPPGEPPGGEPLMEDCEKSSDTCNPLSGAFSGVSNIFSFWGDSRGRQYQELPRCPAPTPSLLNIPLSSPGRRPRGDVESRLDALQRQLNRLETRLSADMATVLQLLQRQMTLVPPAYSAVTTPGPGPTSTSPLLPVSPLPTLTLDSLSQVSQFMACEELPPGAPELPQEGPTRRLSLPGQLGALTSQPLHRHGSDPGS

According to ChEMBL document CHEMBL1153304, “2,4-Diaminopyridine delta-opioid receptor agonists and their associated hERG pharmacology” (Bioorg Med Chem Lett, 2009):

Biological target: Voltage-gated inwardly rectifying potassium channel KCNH2 (Homo sapiens, UniProt Q12809)
Experiment: Inhibition of human ERG

Compound	Ki [µM]
Nc1ccnc(N2CCC(N(C(=O)C3CCCCC3)c3ccccn3)CC2)c1	> 10
Nc1ccnc(N2CCC(NC(=O)[C@@H]3CCCO3)(c3ccccc3)CC2)c1	> 10
